Laboratory results reported in patent US10174016B2 (BAYER AKTIENGESELLSCHAFT, priority 2014, dated 2019).
Like-named read-outs stand apart in the source and are kept apart here.

Amino acid sequences for entries named in this document (tags omitted). A change or cut given only in a name is not applied to a line headed by its entry.
UniProt P56373: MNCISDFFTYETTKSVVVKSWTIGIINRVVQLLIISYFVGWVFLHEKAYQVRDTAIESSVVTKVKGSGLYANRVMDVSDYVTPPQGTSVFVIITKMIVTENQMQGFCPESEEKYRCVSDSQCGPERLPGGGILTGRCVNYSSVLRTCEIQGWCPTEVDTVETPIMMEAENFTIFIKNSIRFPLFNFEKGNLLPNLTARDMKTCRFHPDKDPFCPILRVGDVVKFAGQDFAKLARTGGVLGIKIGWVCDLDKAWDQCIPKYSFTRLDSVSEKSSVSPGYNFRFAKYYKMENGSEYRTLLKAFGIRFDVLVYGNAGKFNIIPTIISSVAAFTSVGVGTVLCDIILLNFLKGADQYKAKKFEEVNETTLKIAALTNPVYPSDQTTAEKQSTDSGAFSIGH
UniProt Q9UBL9: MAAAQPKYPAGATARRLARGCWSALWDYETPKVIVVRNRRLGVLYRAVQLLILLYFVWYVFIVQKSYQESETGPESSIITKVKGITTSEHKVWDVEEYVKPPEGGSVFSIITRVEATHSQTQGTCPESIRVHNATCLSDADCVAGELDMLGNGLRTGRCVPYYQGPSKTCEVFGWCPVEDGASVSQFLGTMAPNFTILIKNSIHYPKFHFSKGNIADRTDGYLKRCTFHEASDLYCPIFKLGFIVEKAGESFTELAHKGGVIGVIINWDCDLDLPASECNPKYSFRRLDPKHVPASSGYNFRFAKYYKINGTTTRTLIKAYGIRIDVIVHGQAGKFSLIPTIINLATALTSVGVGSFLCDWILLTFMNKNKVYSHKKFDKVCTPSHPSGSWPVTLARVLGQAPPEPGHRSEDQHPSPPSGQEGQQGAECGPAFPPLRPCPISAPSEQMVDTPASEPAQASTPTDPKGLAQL

Tests used:
human P2X3 receptor = human P2X3 receptor (Homo sapiens (Human), UniProt P56373); details: human P2X3, FLIPR calcium assay, agonist α,β-Me-ATP
human P2X2/3 receptor = human P2X2/3 receptor (Homo sapiens (Human), UniProt P56373+Q9UBL9); experiment: Intracellular calcium measurement (FLIPR, Fluo-4) of antagonist activity at human P2X2/3 receptors; type: cell-based; details: human P2X2/3, FLIPR calcium assay, agonist α,β-Me-ATP; read-out: hP2X2/3 IC50

Compound	IC50 (human P2X3 receptor; read-out: hP2X3 IC50) [nM]	IC50 (human P2X2/3 receptor) [nM]	IC50 (human P2X3 receptor; hP2X3 IC50 (nM)) [nM]
Cc1cnc(-c2cc(OC(C)C(C)O)cc(C(=O)N[C@H](C)c3cnc(C(F)(F)F)nc3)c2)s1 (stereo partly drawn) [Example 338, 3-[(3-hydroxybutan-2-yl)oxy]-5-(5-methyl-1,3-thiazol-2-yl)-N-{(1R)-1-[2-(trifluoromethyl)pyrimidin-5-yl]ethyl}benzamide]	4	72	–
Cc1cnc(-c2cc(O[C@H]3CCCN(C)C3)cc(C(=O)N[C@H](C)c3cnc(C(F)(F)F)nc3)c2)s1 [Example 155, 3-{[(3S)-1-methylpiperidin-3-yl]oxy}-5-(5-methyl-1,3-thiazol-2-yl)-N-{(1R)-1-[2-(trifluoromethyl)pyrimidin-5-yl]ethyl}benzamide]	40	2270	–
Cc1cnc(-c2cc(OC3CCC(=O)N(C)C3)cc(C(=O)N[C@H](C)c3cnc(C(F)(F)F)nc3)c2)s1 (stereo partly drawn) [Example 335, 3-[(1-methyl-6-oxopiperidin-3-yl)oxy]-5-(5-methyl-1,3-thiazol-2-yl)-N-{(1R)-1-[2-(trifluoromethyl)pyrimidin-5-yl]ethyl}benzamide]	–	541	13
Cc1cnc(-c2cc(OC3CCN(CC(F)(F)F)CC3)cc(C(=O)N[C@H](C)c3cnc(C(F)(F)F)nc3)c2)s1 [Example 303, 3-(5-methyl-1,3-thiazol-2-yl)-5-{[1-(2,2,2-trifluoroethyl)piperidin-4-yl]oxy}-N-{(1R)-1-[2-(trifluoromethyl)pyrimidin-5-yl]ethyl}benzamide]	5	38	–
Cc1cnc(-c2cc(OC[C@H]3CN(C(=O)OC(C)(C)C)CCO3)cc(C(=O)N[C@H](C)c3cnc(C(F)(F)F)nc3)c2)s1 [Example 346, Tert-butyl (2R)-2-{[3-(5-methyl-1,3-thiazol-2-yl)-5-({(1R)-1-[2-(trifluoromethyl)pyrimidin-5-yl]ethyl}carbamoyl)phenoxy]methyl}morpholine-4-carboxylate]	13	334	–
Cc1cnc(-c2cc(OCC3(F)CCCN(C)C3)cc(C(=O)N[C@H](C)c3cnc(C(F)(F)F)nc3)c2)s1 (single isomer, unassigned) [Example 357]	–	310	5
Cc1cnc(-c2cc(O[C@H]3CCOC3)cc(C(=O)NC(C)c3nnc(C(F)(F)F)s3)c2)s1 (single isomer, unassigned) [Example 200]	–	546	30
Cc1cnc([C@@H](C)NC(=O)c2cc(OC[C@@H]3CCOC3)cc(-c3ncc(C(C)C)s3)c2)cn1 [Example 265, N-[(1R)-1-(5-methylpyrazin-2-yl)ethyl]-3-[5-(propan-2-yl)-1,3-thiazol-2-yl]-5-[(3R)-tetrahydrofuran-3-ylmethoxy]benzamide]	104	696	–
